Measured values reported in patent US20240173276A1, “METHODS AND COMPOSITIONS FOR INHIBITING FORMATION OF THE HIV LATENT RESERVOIR” (The University of North Carolina at Chapel Hill, priority 2021, published 2024).

Tested on: replication competent HIV (NL4-3 HSA) infected primary CD4 T cells
Conditions: 500 nM vorinostat with raltegravir and abacavir from 2 dpi, vorinostat removed at 12 dpi; vs DMSO

## O=C(CCCCCCC(=O)Nc1ccccc1)NO [vorinostat]
  duration of significantly prolonged viral gene expression (HSA+): at least 17 days after infection
